# OPERA 2.9 data: logP (octanol/water) values

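These are experimental values that the OPERA curators gathered from public databases to train and test their QSAR models. A listed value is a point estimate from one report or more. Method, purity and exact conditions of the single measurements are not given. A value may pool stereoisomers or salt forms, and the file does not say which form was measured. Some upstream entries may be estimates or bounds without being marked so.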

logP is the log10 of the octanol-water partition coefficient; higher is more lipophilic.
"–" marks a cell with nothing listed here.
The databases behind each value are named after "via".

structure (SMILES),name,logP (octanol/water),via
CCCCCC#CC(=O)OC,Methyl 2-octynoate,3,eChemPortal
COc1cc(/N=N/c2cccc(S(=O)(=O)[O-])c2)ccc1NC(=O)Nc1ccc(/N=N/c2cccc(S(=O)(=O)[O-])c2)cc1OC.[Na+].[Na+],–,-2.7,eChemPortal
OCCS,2-Mercaptoethanol,-0.056,eChemPortal
NCCC(=O)N[C@@H](Cc1cnc[nH]1)C(=O)O,–,-3.625,eChemPortal
CC(=O)[C@H]1CC[C@H]2[C@@H]3C[C@H](C)C4=CC(=O)CC[C@]4(C)[C@H]3[C@@H](O)C[C@]12C,Medrysone,3.2,PubChem
CC(C)=CC1CC(C)CCO1 (stereo not given),4-Methyl-2-(2-methylprop-1-en-1-yl)tetrahydro-2H-pyran,3.45,"OCHEM, eChemPortal"
O=[N+]([O-])c1cc(S(=O)(=O)[O-])cc(/N=N/c2c(S(=O)(=O)[O-])cc3cc(S(=O)(=O)[O-])cc(/N=N/c4c([O-])ccc5ccccc45)c3c2O)c1[O-].O=[N+]([O-])c1cc(S(=O)(=O)[O-])cc(/N=N/c2c(S(=O)(=O)[O-])cc3cc(S(=O)(=O)[O-])cc(/N=N/c4c([O-])ccc5ccccc45)c3c2O)c1[O-].[Co+3].[Na+].[Na+].[Na+].[Na+].[Na+].[Na+].[Na+],–,2,eChemPortal
CCOC(=O)Nc1ccc2nn(C)nc2c1,Ethyl (2-methyl-2H-benzotriazol-5-yl)carbamate,1.83,OCHEM
CCN(CC)c1ccc2cc(C3(S(=O)(=O)[O-])Nc4cc(S(N)(=O)=O)ccc4O3)c(=O)oc2c1.[Na+] (stereo not given),–,1.141,eChemPortal
C=CCN(CC=C)c1cc(NC(C)=O)c(N=Nc2c(Br)cc([N+](=O)[O-])cc2[N+](=O)[O-])cc1OC,–,6.9,eChemPortal
CC(C)CC(C)(O)C#CC(C)(O)CC(C)C (stereo not given),"2,4,7,9-Tetramethyl-5-decyne-4,7-diol",2.8,eChemPortal
COc1ccccc1N1CCN(CCNC(=O)c2ccncn2)CC1,–,1.5,OCHEM
O=C1Cc2ccccc2O1,(3H)-Benzofuran-2-one,1.347,eChemPortal
Clc1ccc2cncnc2c1,7-chloroquinazoline,1.74,OCHEM
CS(=O)(=O)c1ccc(C(=O)Nc2ccc(Cl)c(-c3ccccn3)c2)c(Cl)c1,Vismodegib,2.7,PubChem
CCc1cccc(N)c1,3-Ethylaniline,1.88,OCHEM
O=[N+]([O-])c1ccc(Nc2ccc(Nc3ccccc3)c(S(=O)(=O)[O-])c2)c([N+](=O)[O-])c1.[Na+],C.I. Acid Orange 3,-0.4,eChemPortal
CC(O)CO.O=C(O)c1ccc2c(c1)C(=O)OC2=O,–,0.9,eChemPortal
COC(=O)CN(c1cc(NC(C)=O)c(N=Nc2c(Cl)cc([N+](=O)[O-])cc2C#N)cc1OC)C(C)C(=O)OC (stereo not given),–,2.9,eChemPortal
CO[Si](OC)(OC)c1ccccc1,Trimethoxyphenylsilane,-0.021,eChemPortal
N=C(O)c1c(Cl)c(Cl)c(Cl)c(Cl)c1C(=O)O,–,-1.68,OCHEM
CCCCCCCC/C=C\CCCCCCCCN,(Z)-9-Octadecenylamine,3.11,OFMPub
O[C@H]1[C@H](O)[C@@H](O)[C@H](O)[C@@H](O)[C@H]1O,myo-Inositol,-2.08,eChemPortal
COC(=O)CC(O)(CC(=O)OC)C(=O)OC,"1,2,3-Propanetricarboxylic acid, 2-hydroxy-, trimethyl ester",0.7,eChemPortal
C[N+](C)=C1C=CC(=C2C=C(c3ccc(N)cc3)SC(c3ccc(N)cc3)=C2)C=C1,–,1.9,OCHEM
Nc1c(I)c(C(=O)Cl)c(I)c(C(=O)Cl)c1I,"5-Amino-2,4,6-triiodoisophthaloyl dichloride",3.7,eChemPortal
Cc1c[nH]c(=O)cc1N,4-Amino-5-methylpyridin-2(1H)-one,-0.51,eChemPortal
Cc1cc(O)c(C(C)(C)C)cc1Sc1cc(C(C)(C)C)c(O)cc1C,"4,4'-Thiobis(6-tert-butyl-m-cresol)",5.485,"OCHEM, eChemPortal"
Cc1cc(O)c2ccccc2c1O,Menadiol,2.76,OCHEM
CNC(=O)[C@@H](NC(=O)[C@H](CC(C)C)[C@H](O)C(=O)NO)C(C)(C)C,Marimastat,0.4,PubChem
C=CC(C)CCC=C(C)C (stereo not given),Dihydromyrcene,5.831,eChemPortal
COC(=O)c1ccc(C(C)(C)C)cc1,"Benzoic acid, 4-(1,1-dimethylethyl)-, methyl ester",4.3,eChemPortal
CCCCC(=O)O[C@]1(C(=O)CO)CC[C@H]2[C@@H]3CCC4=CC(=O)C=C[C@]4(C)[C@H]3C(=O)C[C@@]21C,–,3.82,OCHEM
CC(=O)OCC(C)OC(C)=O (stereo not given),Propylene glycol diacetate,0.8,PubChem
CC(C)COC(=O)C(C)C,Isobutyl isobutyrate,3.17,eChemPortal
CC/C=C\CCOC(=O)c1ccccc1O,(3Z)-Hex-3-en-1-yl salicylate,4.8,"OCHEM, eChemPortal"
ClCC1(C(Cl)Cl)[C@H]2[C@@H](Cl)[C@H](Cl)[C@]1(C(Cl)Cl)[C@@H](Cl)[C@@H]2Cl (some centres not stated),Nonachlorobornane (Parlar 50),5.84,OCHEM
COC(C=CC(OC)OC)OC,"1,1,4,4-Tetramethoxy-2-butene",1,eChemPortal
Cn1c(=O)c2c(ncn2CC(O)CO)n(C)c1=O (stereo not given),Dyphylline,-1.9,PubChem
O=C(O)c1ccccc1C(=O)Nc1ccc(S(=O)(=O)Nc2nccs2)cc1,Phthalylsulfathiazole,0.01,eChemPortal
Cc1ccc(-c2[nH]c(C#N)nc2Cl)cc1,4-Chloro-5-(4-methylphenyl)-1H-imidazole-2-carbonitrile,3,eChemPortal
Nc1cc(S(=O)(=O)[O-])c(O)c2c1C(=O)c1c(O)c(S(=O)(=O)[O-])cc(N)c1C2=O.[Na+].[Na+],C.I. Acid Blue 45,-3.05,eChemPortal
C=CC(=O)OC1CC(C)CC(C)(C)C1 (stereo not given),"2-Propenoic acid, 3,3,5-trimethylcyclohexyl ester",4.535,eChemPortal
O=C1CCCCCCCCCCCCCCCO1,Oxacycloheptadecan-2-one,7.3,eChemPortal
OCC(CO)(CO)COCC(CO)(CO)CO,Dipentaerythritol,-1.8,eChemPortal
Cc1ccc(O)c(N=Nc2ccccc2[N+](=O)[O-])c1,4-Methyl-2-[2-(2-nitrophenyl)diazenyl]phenol,4,eChemPortal
Nc1cc([N+](=O)[O-])cc(S(=O)(=O)O)c1O,6-Amino-4-nitro-1-phenol-2-sulfonic acid,0.38,eChemPortal
O=S(=O)([O-])c1cc(O)c2ccc3c(S(=O)(=O)[O-])cc(S(=O)(=O)[O-])c4ccc1c2c34.[Na+].[Na+].[Na+],C.I. Solvent green 7,-0.68,eChemPortal
C[Si](C)(C)O[Si](C)(C)C,Hexamethyldisiloxane,4.2,OCHEM
C=CC(C)(O)CCC=C(C)CCC=C(C)C (stereo not given),Nerolidol,4.5,eChemPortal
CCOC(=O)C1=CCC[N+](C)(C)C1.[I-],–,-2.35,OCHEM
Cn1c(=O)c(N=Nc2ccc([N+](=O)[O-])cc2)c(O)c2ccccc21,–,2.6,eChemPortal
NC(=O)c1ccc(Cl)c(N)c1,"Benzamide, 3-amino-4-chloro-",0.95,eChemPortal
Cc1[nH]n2c(=O)c3ccccc3nc2c1N=Nc1ccc(Cl)cc1[N+](=O)[O-],–,2,eChemPortal

The 3 lowest values of logP (octanol/water) among the entries above:

structure (SMILES),name,logP (octanol/water),via
NCCC(=O)N[C@@H](Cc1cnc[nH]1)C(=O)O,–,-3.625,eChemPortal
Nc1cc(S(=O)(=O)[O-])c(O)c2c1C(=O)c1c(O)c(S(=O)(=O)[O-])cc(N)c1C2=O.[Na+].[Na+],C.I. Acid Blue 45,-3.05,eChemPortal
COc1cc(/N=N/c2cccc(S(=O)(=O)[O-])c2)ccc1NC(=O)Nc1ccc(/N=N/c2cccc(S(=O)(=O)[O-])c2)cc1OC.[Na+].[Na+],–,-2.7,eChemPortal

Values as listed in the OPERA 2.9 repository of K. Mansouri.